Data: publication PMC10123104 (Nucleic Acids Research, 2023)

Amino acid sequences for entries named in this document (tags omitted). A change or cut given only in a name is not applied to a line headed by its entry.
UniProt P30177: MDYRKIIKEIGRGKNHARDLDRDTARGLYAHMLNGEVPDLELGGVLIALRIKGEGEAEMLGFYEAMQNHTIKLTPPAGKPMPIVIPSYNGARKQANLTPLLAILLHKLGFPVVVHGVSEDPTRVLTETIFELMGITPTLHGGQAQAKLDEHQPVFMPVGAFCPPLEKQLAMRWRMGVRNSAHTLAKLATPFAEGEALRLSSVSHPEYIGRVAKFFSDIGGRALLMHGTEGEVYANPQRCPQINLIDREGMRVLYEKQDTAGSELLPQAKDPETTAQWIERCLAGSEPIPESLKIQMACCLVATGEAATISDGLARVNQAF

Biological target: YbiB (Escherichia coli, UniProt P30177)
Assay type: binding
Conditions: ITC, YbiB WT in syringe

SMILES: CC[C@H](C)[C@H](NC(=O)[C@H](CCC(=O)O)NC(=O)[C@H](CCC(=O)O)NC(=O)[C@@H](N)CC(C)C)C(=O)N[C@@H](C)C(=O)N[C@@H](CCC(=O)O)C(=O)N[C@@H](CCC(=O)O)C(=O)N[C@@H](CC(=O)O)C(=O)N[C@@H](CC(=O)O)C(=O)N[C@@H](CCC(=O)O)C(=O)N[C@@H](CC(=O)O)C(=O)N[C@@H](C)C(=O)N[C@@H](CC(=O)O)C(=O)N[C@@H](CC(=O)O)C(=O)N[C@@H](CC(=O)O)C(=O)N[C@@H](C)C(=O)N[C@@H](CC(=O)O)C(=O)N[C@@H](CCC(=O)O)C(=O)N[C@@H](CC(=O)O)C(=O)N[C@@H](CC(=O)O)C(=O)O [peptide4-AA]
- -TΔS, first binding event (repeat 1): 1.22 kcal/mol
- -TΔS, first binding event (repeat 2): 0.874 kcal/mol
- -TΔS, first binding event (repeat 3): 4.10 kcal/mol

Read-outs that look alike come from different tables or passages of the source.
